The values below come from PubChem BioAssay AID743445 (Broad Institute, 2014).

The chains behind the UniProt entries cited, without tags or fusion partners. Where a name states a change or a piece, a line headed by the entry shows the natural chain unless it says otherwise.
UniProt O96028: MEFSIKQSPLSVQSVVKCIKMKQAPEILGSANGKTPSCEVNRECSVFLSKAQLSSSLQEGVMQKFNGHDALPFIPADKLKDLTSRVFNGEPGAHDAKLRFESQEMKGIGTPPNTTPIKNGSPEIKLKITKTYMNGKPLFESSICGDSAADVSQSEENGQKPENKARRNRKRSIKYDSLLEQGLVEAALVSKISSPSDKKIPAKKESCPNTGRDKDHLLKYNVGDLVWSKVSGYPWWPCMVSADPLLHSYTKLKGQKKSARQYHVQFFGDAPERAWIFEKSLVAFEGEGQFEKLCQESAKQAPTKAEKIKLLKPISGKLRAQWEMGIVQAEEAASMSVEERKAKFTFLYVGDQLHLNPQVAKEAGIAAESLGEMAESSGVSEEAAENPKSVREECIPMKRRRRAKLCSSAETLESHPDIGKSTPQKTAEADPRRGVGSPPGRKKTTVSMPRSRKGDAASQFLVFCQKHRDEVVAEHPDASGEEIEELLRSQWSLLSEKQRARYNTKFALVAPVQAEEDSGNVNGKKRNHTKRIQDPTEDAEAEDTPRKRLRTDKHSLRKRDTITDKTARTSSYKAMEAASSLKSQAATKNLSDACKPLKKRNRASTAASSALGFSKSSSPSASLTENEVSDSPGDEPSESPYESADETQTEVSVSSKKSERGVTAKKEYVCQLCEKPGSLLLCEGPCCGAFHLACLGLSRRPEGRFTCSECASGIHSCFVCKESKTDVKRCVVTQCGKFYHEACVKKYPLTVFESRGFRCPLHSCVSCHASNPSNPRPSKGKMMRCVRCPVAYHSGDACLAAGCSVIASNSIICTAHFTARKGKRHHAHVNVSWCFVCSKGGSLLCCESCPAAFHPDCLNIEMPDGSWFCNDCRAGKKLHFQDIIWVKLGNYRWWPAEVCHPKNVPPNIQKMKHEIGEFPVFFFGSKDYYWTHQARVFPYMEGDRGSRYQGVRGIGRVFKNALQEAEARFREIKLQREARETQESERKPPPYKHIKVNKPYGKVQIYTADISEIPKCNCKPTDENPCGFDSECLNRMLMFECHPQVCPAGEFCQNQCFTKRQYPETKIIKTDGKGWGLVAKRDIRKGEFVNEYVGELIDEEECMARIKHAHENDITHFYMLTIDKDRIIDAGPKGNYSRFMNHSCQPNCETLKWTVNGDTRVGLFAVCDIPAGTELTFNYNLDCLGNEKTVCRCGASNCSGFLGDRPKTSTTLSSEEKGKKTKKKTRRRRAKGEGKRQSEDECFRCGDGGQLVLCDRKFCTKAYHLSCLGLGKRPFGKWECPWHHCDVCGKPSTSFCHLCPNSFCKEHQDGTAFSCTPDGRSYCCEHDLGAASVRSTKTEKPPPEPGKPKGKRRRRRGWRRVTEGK

The entries are a selection whose mix differs from that of the whole data set. Active and inactive are the calls of the source. Cut-off read from the data, not from the text of the source: active = inhibition above about 50%; inactive = the rest.

The target of the assay is Histone-lysine N-methyltransferase NSD2 (Homo sapiens) (UniProt O96028). Briefly: blockers of NSD2 lysine methylation activity – biochemical, AlphaScreen, single concentration, set 2, primary screen (AID 743445). To be noted: NSD2 peptide methylation, 120 min, at 12.5 µM, hits give high values.
As for `NC(=O)c1cc([N+](=O)[O-])cc([N+](=O)[O-])c1N`, the inhibition is inactive: -1.22%.

Turning to `Cc1ccc(N/C(=N/P(=O)(N2CCOCC2)N2CCOCC2)N2CCOCC2)cc1`, the inhibition is inactive: -2.36%.

Turning to `CCN(N=Nc1nonc1N)c1nonc1N`, the inhibition was inactive: 1.55%.

Take `Nc1cccc2ccc([As](=O)(O)O)cc12`: the inhibition is inactive: 24%.

`Cc1cc(SC(NC(=O)c2ccc(F)cc2)C(Cl)(Cl)Cl)ncn1` (stereo not given): the inhibition is inactive: -2.23%.

For the molecule `CCOP(=O)(Nc1ccccc1)OCC`, the inhibition is inactive: 0.611%.

On to `Cc1ccc(NP(=O)(Oc2ccccc2F)Oc2ccccc2F)nc1`, for which the inhibition is inactive: -1.51%.

For the molecule `CC(=O)Nc1ccc([As](=O)(O)O)cc1`, the inhibition was inactive: 6.61%.

In the case of `O=C(O)c1ccccc1[As](=O)(O)O`, the inhibition is inactive: 1.31%.

As to `CCCC1OP(N)(=O)OCC1CC` (stereo not given), the inhibition was inactive: -2.12%.

`O=P(Nc1nc2ccc(Cl)cc2s1)(c1ccccc1)c1ccccc1`: the inhibition is inactive: 0.771%.

On to `CN(C)P(=O)(N(C)C)n1c(Nc2ccccc2)nnc1-c1ccccc1`, for which the inhibition is inactive: -1.33%.

Regarding `CC(C)NC(=O)NP(=O)(Oc1ccccc1)Oc1ccccc1`, the inhibition was inactive: 33.7%.

As to `O=C(OC1CN2CCC1CC2)c1cccc2[nH]cnc12` (stereo not given), the inhibition was inactive: 0.138%.

Take `O=[N+]([O-])c1cc([N+](=O)[O-])c(-c2ccn[nH]2)s1`: the inhibition is inactive: 3.66%.

Consider `COC(=O)C1(C)COP(=O)(N2CCCCCC2)OC1` (stereo not given), for which the inhibition was inactive: -0.606%.

In the case of `ClCCSc1nnc(-c2cccnc2)o1`, the inhibition was inactive: -0.82%.

Take `Cc1ccc2nc3c(c(C)c2c1)CC(C(Cl)Cl)S3` (stereo not given): the inhibition was inactive: -0.622%.

Consider `Cc1ccc(OP(=O)(Nc2ccc([N+](=O)[O-])cn2)Oc2ccc(C)cc2)cc1`, for which the inhibition was inactive: -2.21%.

For the molecule `O=[As](O)(c1ccc(O)cc1)c1ccccc1O`, the inhibition was inactive: -27.6%.

Consider `C[As](=O)(O)c1cccc(C(=O)O)c1`, for which the inhibition was inactive: -3.47%.

Consider `O=[N+]([O-])c1ccc(-c2cc([N+](=O)[O-])c(O)c([N+](=O)[O-])c2)cc1`, for which the inhibition is inactive: 16.8%.

As for `COc1cc(C(=O)NCC2(N3CCOCC3)CCCCC2)ccc1OCC(C)C`, the inhibition is inactive: -1.73%.

For `COc1ccc(N/C(=N/P(=O)(N2CCOCC2)N2CCOCC2)N2CCOCC2)cc1`, the inhibition is inactive: -1.46%.

Take `O=[N+]([O-])c1cc(Oc2ccc([N+](=O)[O-])cc2C(F)(F)F)cc([N+](=O)[O-])c1`: the inhibition is inactive: 4.62%.

Turning to `COc1ccc2nc(NP(=O)(c3ccccc3)c3ccccc3)sc2c1`, the inhibition is inactive: -1.47%.

As for `COc1cc(I)ccc1[As](=O)(O)O`, the inhibition is inactive: 6.76%.

Consider `O=P1(N(CCCl)CCCl)OCCCN1CCCl` (stereo not given), for which the inhibition was inactive: -0.269%.

As to `O=P1(N(CCCl)CCCl)Nc2ccccc2N1`, the inhibition is inactive: 1.45%.

Consider `O=C(OC1CN2CCC1CC2)C12CC3CC(CC(C3)C1)C2` (stereo not given), for which the inhibition was inactive: 1.17%.

Regarding `Cc1cc(=O)[nH]c(N[N+](=O)[O-])n1`, the inhibition was inactive: -1.67%.

`Cc1c2c(nc3ccccc13)SC(C(Cl)Cl)C2` (stereo not given): the inhibition is inactive: 9.35%.

Take `CCC(C)N(CC(C)C)C(=S)SC(NC(C)=O)C(Cl)(Cl)Cl` (stereo not given): the inhibition was inactive: 18.9%.

`CCOC(=O)c1ccc(NC(=O)C(C)(CCl)SC)cc1` (stereo not given): the inhibition is inactive: -1.44%.

On to `O=C(OC1CN2CCC1CC2)c1cccc([N+](=O)[O-])c1` (stereo not given), for which the inhibition was inactive: -2.31%.

As for `CSc1ccc(Nc2c([N+](=O)[O-])cc([N+](=O)[O-])cc2[N+](=O)[O-])cc1`, the inhibition is inactive: 13.9%.

With `O=C(Nc1ccncc1[N+](=O)[O-])c1ccc([N+](=O)[O-])cc1[N+](=O)[O-]`, the inhibition was inactive: 2.01%.

On to `O=C(O)C(=O)c1ccc(N(CCCl)CCCl)cc1`, for which the inhibition was inactive: -0.154%.

With `COP1(=S)c2c(C)nn(CCC#N)c2N=C(c2ccc(F)cc2)N1C` (stereo not given), the inhibition is inactive: 1.9%.

`COC(=O)C1(C)COP(=O)(N2CCCC2)OC1` (stereo not given): the inhibition was inactive: 3.06%.

As for `O=[N+]([O-])c1ccc(Nc2ccc(Oc3ccc([N+](=O)[O-])cc3[N+](=O)[O-])cc2)c([N+](=O)[O-])c1`, the inhibition was inactive: 3.92%.

Turning to `O=P(Nc1ccccn1)(c1cccc2ccccc12)c1cccc2ccccc12`, the inhibition is inactive: 0.579%.

For the molecule `Cc1cc(SC(NC=O)C(Cl)(Cl)Cl)ncn1` (stereo not given), the inhibition was inactive: 0.126%.

As for `CCOC(=O)Nc1cccc([As](=O)(O)O)c1`, the inhibition was inactive: -1.95%.

`CCCCOc1ccc(C(=O)NCC2(N3CCCCC3)CCCCC2)cc1OC`: the inhibition was inactive: 1.52%.

As for `COP(=O)(OC)N1CC1c1ccccc1` (stereo not given), the inhibition was inactive: -6.15%.

For the molecule `CC1CCNP(=O)(N(CCCl)CCCl)O1` (stereo not given), the inhibition was inactive: -8.75%.

With `CCOC(=O)Nc1ccc([As](=O)(O)O)c(O)c1`, the inhibition was inactive: -3.15%.

Regarding `O=C(O)C(O)c1ccc(N(CCCl)CCCl)cc1` (stereo not given), the inhibition is inactive: 0.662%.

On to `Cc1ccc(OCC(=O)OC2CN3CCC2CC3)cc1` (stereo not given), for which the inhibition was inactive: -2.46%.

Consider `O=[As](O)(c1cccs1)c1cccs1`, for which the inhibition is inactive: 1.38%.

`O=P1(Nc2ccc(Br)cn2)COc2ccccc2OC1`: the inhibition is inactive: 0.294%.

Consider `NS(=O)(=O)c1cccc(NC(=O)COC(=O)C(O)(c2ccccc2)c2ccccc2)c1`, for which the inhibition was inactive: -1.09%.

For the molecule `Nc1cccc([As](=O)(O)c2ccccc2)c1`, the inhibition is inactive: 1.56%.

Take `O=P1(Nc2ncccn2)COc2ccccc2OC1`: the inhibition is inactive: -12%.

Take `Cc1ccc(S(=O)(=O)N(CCCN)CCCc2c(C)nc(N)[nH]c2=O)cc1`: the inhibition was inactive: 3.76%.

Regarding `O=C(/C=C/c1ccccc1)OC1CN2CCC1CC2` (stereo not given), the inhibition was inactive: -1.35%.

Regarding `CCCC1OP(=O)(Nc2ccccc2)OCC1CC` (stereo not given), the inhibition was inactive: 0.949%.

In the case of `CN(C)C1(CNC(=O)c2ccc(S(C)(=O)=O)cc2)CCCCC1`, the inhibition is inactive: -5.15%.

In the case of `Cc1nn(-c2ccccc2)c2c1P(=O)(N1CCOCC1)N(C)C(c1ccccc1)=N2` (stereo not given), the inhibition was inactive: -0.315%.

Take `CC1CCC(C(C)C)C(OP(=O)(Nc2ccccn2)c2ccccc2)C1` (stereo not given): the inhibition is inactive: 3.89%.

Take `Cc1ccc(C(=O)OC2CN3CCC2CC3)cc1` (stereo not given): the inhibition is inactive: -0.746%.

Take `CC1(CBr)Cn2c(nc3ccccc3c2=O)S1` (stereo not given): the inhibition was inactive: -4.35%.

With `CC(C)/C=N\N=C(\N)N[N+](=O)[O-]`, the inhibition is inactive: -2.38%.

Consider `COc1ccccc1CNC(=O)COC(=O)C(O)(c1ccccc1)c1ccccc1`, for which the inhibition is inactive: -0.452%.

In general, inhibition refers to the relative decrease from the control value, in per cent.
